{"source": "patent EP0874630B1", "about": "“TOP[…] POISON AND BIS-DIOXY[…] COMBINATION THERAPY” (priority 1996, dated 1997)", "key": {"mice [1]": {"test_system": "mice", "test": "Lethality in healthy mice after drugs given once i.p., with or without ICRF-187 pretreatment (survivors/treated)", "format": "in vivo", "conditions": "11 mice", "experimental": "Toxicity was evaluated by weight and leucocyte counts.\nThe lethality of etoposide is decreased by pretreatment with ICRF-187 in low, non-toxic doses. Drugs were given once i.p. ICRF-187 was given immediately before etoposide.\nThe compiled data from two experiments showing that paclitaxel induced lethality cannot be protected by pretreamtment with ICRF-187. Groups of 11 mice were treated once i.p. with or without pretreatment with ICRF-187."}, "mice [2]": {"test_system": "mice", "experimental": "First generation hybrids of female random bred Swiss mice and male inbred DBA (NDF1-hybrid) mice were used as previously described (5). The mice weighed between 19 and 21 g at the start of the experiments. […] Lethality was recorded and surviving mice were sacrificed after 60 days. Toxicity was evaluated by weight and leucocyte counts. For weight evaluations mice were treated with drugs, marked and weighed for eleven consecutive days. Blood for leucocyte counts was obtained from a tail vein and counted in a hemocytometer on days 3, 5 and 7 after treatment."}, "L1210 tumour cells": {"test_system": "L1210 tumour cells", "test": "Brain tumour model, L1210 tumour cells inoculated into the cerebrum (increase in life span)", "format": "in vivo", "conditions": "Etoposide 33 mg/kg i.p. on day 2; 10^4 L1210 tumour cells i.c. on day 0; groups of 18 mice", "experimental": "(§1) In therapy studies, mice were inoculated i.p. with either 10^5 L1210 leukemia cells or 15x10^6 Ehrlich's ascites tumour cells on day 0 and treated with drugs i.p. on day 4 after inoculation. The brain tumour model consisted of 10^4 L1210 cells or 15x10^4 Ehrlich's ascites tumour cells in a volume of 30 µl of isotonic sodium chloride inoculated on day 0 into the temporal region followed by treatment i.p. on day 2, 3 or 4 after inoculation.\nThe hypothesis that this difference in increase in life span could be caused by the metastatic potential of the L1210 leukemia cells and a possible difference in transport of the two drugs across the blood brain barrier was investigated.\nGroups of 18 mice were inoculated on day 0 and treated on day 2. The Mann-Whitney test was used for statistical evaluation."}, "[3]": {"test_system": "Ehrlich's ascites tumour cells", "test": "Brain tumour model, Ehrlich's ascites tumour cells inoculated into the cerebrum (increase in life span)", "format": "in vivo", "conditions": "Etoposide 33 mg/kg on day 2; 15x10^5 Ehrlich's ascites tumour cells i.c. on day 0; groups of 9 mice", "experimental": "as §1\nGroups of 9 mice were inoculated on day O and treated on day 2. The Mann-Whitney test was used for statistical evaluation.\nThe results in Table 6A show an increased life span from 11% to 33% corresponding to 300% compared to the increased life span in mice treated with topoisomerase II poison alone in an equitoxic dose."}}, "note": "Several values for one entry are separate records, joined by “and”; a condition that tells them apart may be missing. Equal entries are not always repeated. Where two headings read alike, the source gives them in different places."}
{"smiles": "COc1cc([C@@H]2c3cc4c(cc3[C@@H](O[C@@H]3O[C@@H]5CO[C@@H](C)O[C@H]5[C@H](O)[C@H]3O)[C@H]3COC(=O)[C@H]23)OCO4)cc(OC)c1O", "note": "[etoposide]", "values": [{"measurement": "Survivors / treated", "setting": "mice [1]; Table 1, VP-16 90 mg/kg alone, once i.p., 90 mg/kg", "result": "2/11 (18%) and 1/11 (9%) and 3/11 (27%) and 5/11 (45%)"}, {"measurement": "Survivors / treated", "setting": "mice [1]; Table 2, VP-16 90 mg/kg alone, 90 mg/kg", "result": "8/11 (73%) and 3/11 (27%) and 1/11 (9%)"}, {"measurement": "Survivors / treated", "setting": "mice [1]; Table 2, VP-16 100 mg/kg alone, 100 mg/kg", "result": "3/11 (27%) and 2/11 (18%)"}, {"measurement": "Survivors / treated", "setting": "mice [1]; Table 2, VP-16 120 mg/kg alone, 120 mg/kg", "result": "1/11 (9%) and 0/11 (0%)"}, {"measurement": "Survivors / treated", "setting": "mice [1]; Table 2, VP-16 140 mg/kg alone, 140 mg/kg", "result": "2/11 (18%) and 1/11 (9%) and 4/11 (36%) and 0/11 (0%)"}, {"measurement": "Survivors / treated", "setting": "mice [1]; Table 2, VP-16 180 mg/kg alone, 180 mg/kg", "result": "0/11 (0%) and 2/11 (18%)"}, {"measurement": "Survivors / treated", "setting": "mice [1]; Table 2, VP-16 200 mg/kg alone, 200 mg/kg", "result": "0/11 0% and 2/11 (18%) and 1/11 1 (9%)"}, {"measurement": "Survivors / treated", "setting": "mice [2]; etoposide 50 mg/kg, treatment day 1,3, and 5 (every two days)", "result": "1/11"}, {"measurement": "Survivors / treated", "setting": "mice [2]; etoposide 50 mg/kg, treatment day 1,5, and 9 (every four days)", "result": "9/11"}, {"measurement": "Survivors / treated", "setting": "mice [2]; etoposide 50 mg/kg, treatment day 1,8, and 15 (every seven days)", "result": "9/11"}, {"measurement": "Survivors / treated", "setting": "mice [2]; etoposide 70 mg/kg, treatment day 1,3, and 5 (every two days)", "result": "0/11"}, {"measurement": "Survivors / treated", "setting": "mice [2]; etoposide 70 mg/kg, treatment day 1,5, and 9 (every four days)", "result": "2/11"}, {"measurement": "Survivors / treated", "setting": "mice [2]; etoposide 70 mg/kg, treatment day 1,8, and 15 (every seven days)", "result": "0/11"}, {"measurement": "Survivors / treated", "setting": "mice [2]; etoposide 90 mg/kg, treatment day 1,3, and 5 (every two days)", "result": "0/11"}, {"measurement": "Survivors / treated", "setting": "mice [2]; etoposide 90 mg/kg, treatment day 1,5, and 9 (every four days)", "result": "0/11"}, {"measurement": "Survivors / treated", "setting": "mice [2]; etoposide 90 mg/kg, treatment day 1,8, and 15 (every seven days)", "result": "0/11"}, {"measurement": "ILS(%)", "setting": "L1210 tumour cells", "result": "13% and 21%"}, {"measurement": "ILS(%)", "setting": "[3]", "result": 11, "unit": "%"}]}
